# Values of other authors as cited in US11744842B2, “Methods for the effective treatment of metastatic cancer” (General Oncology, Inc., priority 2012, dated 2023).
# Tested on: normal fibroblasts
# Settings: with the combination of BCNU and doxorubicin; cited from earlier work
smiles,measurement,value
N[C@@H](Cc1ccc(N(CCCl)CCCl)cc1)C(=O)O [melphalan],change in melphalan cytotoxicity,No increase
